Source: publication PMC12509120, “Complex Investigation of the Similarities and Differences between Ten Commercially Available Human Serum Albumin Preparations” (ACS Omega, 2025)

How the values were obtained:
[1] = Total antioxidant capacity, luminol-based enhanced chemiluminescence microplate assay; assay type: biochemical; conditions: HSA solution 40 mg/mL in PBS, Trolox equivalent, compared between preparations
Method: The total antioxidant capacity (TAC) was assessed using a luminol-based enhanced chemiluminescence (ECL) microplate assay, as it has been earlier described. Briefly, a 20 μL of blank, standard, or sample (40 mg/mL HSA, dissolved in PBS) was pipetted into the wells of white 96-well microplates (6005290; Per-Form Hungaria Ltd., Budapest, Hungary). Subsequently, 270 μL of the POD-ECL solution was added and the plate was shaken for 10 s. ECL reaction was initiated by the automated injection of 20 μL of H2O2 solution (1.5 mM). The luminescence of the reaction was monitored for 10 min (with 64 s measurement intervals), applying a Biotek Synergy HT plate reader (Agilent, Santa Clara, California, USA). TAC values were calculated based on the total light output (area under the curve, AUC) of the standards (Trolox, 0–100 μM). TAC of the samples was determined as Trolox equivalent (TE) in μM using a calibration curve.

[2] = Fluorescence quenching of HSA by site I marker iodipamide; assay type: binding; conditions: for Stern–Volmer quenching constant K SV, iodipamide–HSA complex / K SV of iodipamide–HSA complex / Quenching effect of iodipamide on the emission signal of albumin: HSA 2 μM; for Stern–Volmer quenching constant K SV, iodipamide–HSA complex / K SV of iodipamide–HSA complex: iodipamide 0–6 μM, λem 340 nm; for Stern–Volmer quenching constant K SV, iodipamide–HSA complex: PBS pH 7.4, λex 295 nm, mean ± SD; for Quenching effect of iodipamide on the emission signal of albumin: ligand 0–6 μM, relative to other albumins
Method: (§1) Fluorescence measurements were performed with a Hitachi F-4500 fluorescence spectrophotometer (Tokyo, Japan) at room temperature. Emission spectra of HSA solutions were recorded using 295 nm excitation wavelength. In quenching studies, increasing levels (final concentrations: 0, 1, 2, 3, 4, 5, and 6 μM) of site I (furosemide and iodipamide), site II (diazepam and ketoprofen), or heme site (biliverdin and methyl orange) markers were added to albumin (2 μM), and then their quenching effects were evaluated at 340 nm. After background correction, the inner-filter effects of ligands were also corrected based on the following equation: Icor=Iobs×10^(Aex+Aem)/2 where I cor and I obs are the corrected and observed fluorescence emission signals at 340 nm, respectively. Furthermore, A ex and A em are the absorbance values of the site markers applied at 295 and 340 nm, respectively. Stern–Volmer quenching constants (K SV) were determined with linear fitting, employing the following equation: I0/I=1+KSV×[Q] where I 0 marks the fluorescence emission signal of HSA without the ligand, I denotes the emission intensity of HSA in the presence of the ligand, and [Q] is the molar concentration of the quencher.

[3] = Fluorescence quenching of HSA by site II marker ketoprofen; assay type: binding; conditions: HSA 2 μM; for Stern–Volmer quenching constant K SV, ketoprofen–HSA complex: ketoprofen 0–6 μM, PBS pH 7.4, λex 295 nm, λem 340 nm, mean ± SD
Method: as §1

[4] = Ultrafiltration with site I marker warfarin; assay type: binding; conditions: warfarin 1.0 μM, HSA 3.5 or 6.0 μM, PBS pH 7.4, 30 kDa filter
Method: (§2) In ultrafiltration experiments, we applied our previously reported models. , Briefly, Amicon Ultra centrifugal filters (30 kDa; Merck, Darmstadt, Germany) were washed once with water and once with PBS (each 500 μL). Then, samples (500 μL) were filtered for 10 min (centrifugation: 7500g, 25 °C, fixed angle rotor). Since HSA and albumin-bound molecules cannot pass through the filter with a 30 kDa cutoff value, HSA retains the bound ligand molecules, resulting in the decreased concentrations of site markers in the filtrate. , In the first experiment, the site I marker warfarin (1.0 μM) was filtered without and with HSA (3.5 or 6.0 μM). In the second experiment, the site II marker naproxen (1.0 μM) was filtered in the absence and presence of albumin (1.0 or 1.6 μM). After ultrafiltration, the concentrations of warfarin and naproxen were quantified in the filtrates with the previously described HPLC-FLD and HPLC-UV methods, respectively. ,

[5] = Fluorescence quenching of HSA by site I marker furosemide; assay type: binding; conditions: HSA 2 μM; for Stern–Volmer quenching constant K SV, furosemide–HSA complex: furosemide 0–6 μM, PBS pH 7.4, λex 295 nm, λem 340 nm, mean ± SD
Method: as §1

[6] = Fluorescence quenching of HSA by heme site marker biliverdin; assay type: binding; conditions: HSA 2 μM; for Stern–Volmer quenching constant K SV, biliverdin–HSA complex: PBS pH 7.4, λex 295 nm, mean ± SD; for Quenching effect of biliverdin on the emission signal of albumin: ligand 0–6 μM, relative to other albumins
Method: as §1

[7] = Fluorescence emission spectra of HSA solutions; assay type: physicochemical
Method: as §1
Fig. S3: Fluorescence emission spectra of HSA3 (4 μM) in PBS, and the emission signals measured in the
filtrates and in the supernatant (λ ex = 295 nm), where samples were diluted according to the nominal 4 μM
albumin concentration. Each process described below was also performed with PBS (without the protein), where
In ultrafiltration experiments, a 500 μL volume of 20 μM HSA3 solutions (dissolved in PBS or in 25 v/v%
isopropanol–PBS mixture) were filtered (10 min, 7500 g, room temperature) using Amicon Ultra centrifugal
filters (30 kDa; Merck, Darmstadt, Germany). Thereafter, the filtrate was homogenized and diluted to fivefold
volume with PBS (final isopropanol level ≈ 5 v/v%).
In the other experiment, a 150 μL volume of 240 μM HSA3 solution (dissolved in PBS) was prepared, then 300
μL of acetonitrile was added. After intensive vortexing, the precipitated protein was removed by centrifugation
(10 min, 14,000 g, room temperature). Thereafter, the supernatant was diluted to 20-fold with PBS (final
acetonitrile level ≈ 3.3 v/v%).
(1 picture or pasted object on this page, not shown here)

[8] = Ultrafiltration with site II marker naproxen; assay type: binding; conditions: naproxen 1.0 μM, HSA 1.0 or 1.6 μM, PBS, 30 kDa filter
Method: as §2

[9] = Fluorescence quenching of HSA by heme site marker methyl orange; assay type: binding; conditions: HSA 2 μM; for Quenching effect of methyl orange on the emission signal of albumin: ligand 0–6 μM, relative to other albumins; for Stern–Volmer quenching constant K SV, methyl orange–HSA complex: methyl orange 0–6 μM, PBS pH 7.4, λex 295 nm, λem 340 nm, mean ± SD
Method: as §1

[10] = Fluorescence quenching of HSA by site II marker diazepam; assay type: binding; conditions: HSA 2 μM; for Stern–Volmer quenching constant K SV, diazepam–HSA complex: diazepam 0–6 μM, PBS pH 7.4, λex 295 nm, λem 340 nm, mean ± SD
Method: as §1

[11] = ligand 0–6 μM, relative to other albumins

Substance	Total antioxidant capacity [1]	Stern–Volmer quenching constant K SV, iodipamide–HSA complex [2]	K SV of iodipamide–HSA complex [2] [L/mol]	Quenching effect of iodipamide on the emission signal of albumin [2]	Filtered fraction of warfarin in the presence of HSA [4]	Stern–Volmer quenching constant K SV, furosemide–HSA complex [5]	Stern–Volmer quenching constant K SV, biliverdin–HSA complex ([6]; biliverdin 0–6 μM, λem 340 nm)	Quenching effect of biliverdin on the emission signal of albumin [6]	Filtered concentration of naproxen in the presence of HSA [8]	Quenching effect of methyl orange on the emission signal of albumin [9]	Stern–Volmer quenching constant K SV, methyl orange–HSA complex [9]	Stern–Volmer quenching constant K SV, ketoprofen–HSA complex [3]	Stern–Volmer quenching constant K SV, diazepam–HSA complex [10]	also measured
HSA3: Human serum albumin preparation, Merck (Sigma-Aldrich) 126658, lot 3892542, lyophilized powder	slightly lower antioxidant capacity	0.55 ± 0.04 × 10^–5 L/mol	55000	considerably weaker decreases	very similar decreases	0.23 ± 0.01 × 10^–5 L/mol	0.97 ± 0.06 × 10^–5 L/mol	moderately reduced	comparable changes	lowest impact	0.25 ± 0.02 × 10^–5 L/mol	–	–	Quenching effect of ketoprofen on the emission signal of albumin [3, 11]: negligible decreases; Quenching effect of furosemide on the emission signal of albumin [5, 11]: lower quenching effects; Emission peak in the filtrate after ultrafiltration ([7]; 30 kDa filter, in PBS, λex 295 nm): around 355 nm; Fluorescence emission wavelength maximum ([7]; HSA 2 μM in PBS pH 7.4, λex 295 nm): ~355 nm; Fluorescence emission signal ([7]; HSA 2 μM in PBS pH 7.4, λex 295 nm, compared between preparations): considerably stronger fluorescence; Quenching effect of diazepam on the emission signal of albumin [10, 11]: negligible decreases
HSA8: Human serum albumin preparation, Merck (Sigma-Aldrich) A8763, lot SLCD9951, essential globulin free	slightly lower antioxidant capacity	11.23 ± 0.32 × 10^–5 L/mol	1.1e+06	strongest quenching	very similar decreases	1.18 ± 0.06 × 10^–5 L/mol	3.80 ± 0.32 × 10^–5 L/mol	–	comparable changes	–	0.70 ± 0.00 × 10^–5 L/mol	0.39 ± 0.03 × 10^–5 L/mol	0.23 ± 0.02 × 10^–5 L/mol	K SV of iodipamide–HSA8 higher compared to iodipamide–HSA3 ([2]; ratio of K SV values): approximately 20 fold; K SV of iodipamide–HSA8 higher compared to iodipamide–HSA10 ([2]; ratio of K SV values): ~15 fold; K SV of biliverdin–HSA complex ([6]; biliverdin 0–6 μM, λem 340 nm): 260000 to 380000 L/mol
HSA10: Human serum albumin preparation, Merck (Sigma-Aldrich) A9731, lot SLBL9344V, recombinant (expressed in rice)	the highest	0.79 ± 0.01 × 10^–5 L/mol	79000	considerably weaker decreases	considerably higher	1.11 ± 0.08 × 10^–5 L/mol	5.10 ± 0.13 × 10^–5 L/mol	somewhat stronger impacts	higher concentrations	largest changes	1.20 ± 0.00 × 10^–5 L/mol	0.39 ± 0.00 × 10^–5 L/mol	0.18 ± 0.01 × 10^–5 L/mol	–
